Measured values reported in patent US20090162459A1, “Combination Therapy for Treatment of Patients with Neurological Disorders and Cerebral Infarction” (priority 2006, published 2009).

System: blood coagulation
Test: Phase IV open-label study NeuroAid®/aspirin interaction in healthy volunteers, 5 coagulation tests
Type: in vivo, human
Conditions: 11 healthy volunteers per group
Method: An open randomized one-day study was conducted on 11 healthy volunteers receiving NeuroAid® treatment (12 capsules per day) and aspirin (ASA 300 mg per day) from day 1 to day 5, and 11 healthy volunteers receiving aspirin alone (300 mg per day) from day 1 to day 5. Blood samples of the subjects were collected before they received treatment and 2 and 8 hours after treatment initiation.

CC(=O)Oc1ccccc1C(=O)O [Aspirin alone, Acetylsalicylic Acid]
Quick Prothrombine Time, Mean (T + 2 hours): 12.6 s | Activated Partial Prothrombine Time, Mean (T + 8 hours): 38.2 s | Quick Prothrombine Time, Mean (T + 8 hours): 12.4 s
